Test results as given in patent US5962640A, “Methods for preparing novel dipeptide compounds or pharmacuetically acceptable salts thereof” (Japan Energy Corporation, priority 1995, dated 1999).

Target: T1, Recombinant HIV protease (Human immunodeficiency virus type 1 group M subtype B, UniProt P04585)
T1 construct: Recombinant HIV protease
Assay: HIV protease inhibitory activity (cleavage of synthetic hepta-peptide, HPLC)
Type: biochemical
Conditions: 37° C., 60 min
Description: According to a method which was already reported in publications (Yoshiaki Kiso, Yuuki-gosei-kagaku-kyokai-shi, vol. 52, 403-412 (1994), Japanese laid-open patent, No. 170722(1993), etc.), the compounds of example 1-42 were evaluated to verify high HIV protease inhibitory activity of the dipeptide compound of the present invention.
Recombinant HIV protease (Biochemistry, 250 (9), 264 (1990)) and synthetic hepta-peptide (H-Ser-Gln-Asn-Tyr-Pro-Ile-Val-OH/trifluoroacetic acid salt) were used for assay of protease activity. Peptide fragment H-Pro-Ile-Val-OH formed by cleavage between -Tyr . . . Pro of said substrate after a reaction in the presence of various concentration of tested compound at 37° C. for 60 min. was determined by reversed phase HPLC and the inhibitory rate was calculated (referred to Japanese laid-open unexamined patent, No. 170722/1993). […]

## CSC[C@H](NC(=O)COc1cccc2cnccc12)C(=O)N[C@@H](Cc1ccccc1)[C@H](O)C(=O)N1CSC[C@H]1C(=O)NC(C)(C)C [KNI-272, (R)-3-[(2S,3S)-3-(N-(isoquinoline-5-yloxy)acetyl-methylthio-L-alanyl)amino-2-hydroxy-4-phenylbutanoyl]1,3-thiazolidine-4-N'-t-butylcarboxamide, reference compound]
Concentration 50 nM (final)
  HIV protease inhibitory activity (%): 96.7%
Concentration 5 μM (final)
  HIV protease inhibitory activity (%): > 99.0%
